# Measured values reported in US4640910A (Abbott Laboratories, priority 1985, dated 1987).
# Assays:
# Staph. aureus 45 RAR2 = assay: Antimicrobial spectrum, agar dilution MIC; type: cell-based; settings: Staphylococcus aureus, BHI agar, 35°-37° C., 20-24 hours
# Staph. aureus 45 = assay: Antimicrobial spectrum, agar dilution MIC; type: cell-based; settings: Staphylococcus aureus, BHI agar, 35°-37° C., 20-24 hours
smiles,measurement,setting,value
"CC[C@H]1OC(=O)[C@H](C)[C@@H](O[C@H]2C[C@@](C)(OC)[C@@H](O)[C@H](C)O2)[C@H](C)[C@@H](O[C@@H]2O[C@H](C)C[C@H](N(C)C)[C@H]2O[Si](C)(C)C)[C@](C)(OC)C[C@@H](C)C(=O)[C@H](C)[C@@H](O)[C@]1(C)O [Example 3, 2'-O-trimethylsilyl-6-O-methyl-Erythromycin A]",MIC,Staph. aureus 45 RAR2,0.78 µg/mL
same,MIC,Staph. aureus 45,0.78 µg/mL
